Experimental data: US6369081B1, “Muscarinic receptor agonists” (The University of Toledo, priority 1999, dated 2002)

The chains behind the UniProt entries cited, without tags or fusion partners. Where a name states a change or a piece, a line headed by the entry shows the natural chain unless it says otherwise.
UniProt P11229: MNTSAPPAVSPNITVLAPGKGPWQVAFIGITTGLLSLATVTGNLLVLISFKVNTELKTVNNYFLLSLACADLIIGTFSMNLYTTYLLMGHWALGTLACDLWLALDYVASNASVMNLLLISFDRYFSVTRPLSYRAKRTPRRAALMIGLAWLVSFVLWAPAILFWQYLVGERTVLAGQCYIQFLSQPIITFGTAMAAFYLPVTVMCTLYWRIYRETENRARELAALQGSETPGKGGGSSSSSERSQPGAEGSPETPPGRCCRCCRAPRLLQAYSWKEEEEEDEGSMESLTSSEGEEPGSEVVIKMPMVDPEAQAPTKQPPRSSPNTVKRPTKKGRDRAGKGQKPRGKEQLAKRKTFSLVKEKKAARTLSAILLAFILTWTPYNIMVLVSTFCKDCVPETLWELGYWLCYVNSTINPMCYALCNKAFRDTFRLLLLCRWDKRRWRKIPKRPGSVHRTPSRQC

Molecular target: M1 muscarinic receptors (Homo sapiens, UniProt P11229)
Details: read-out: M1 Receptors Ki; M1 receptors expressed in A9 L cells

## CN1CCC=C(c2nsnc2OCCCCCCCCCCOc2nsnc2C2=CCCN(C)C2)C1 [(CH2)10]
  Ki: 0.23 ± 0.1 nM
